Source: article doi:10.1101/2025.10.14.682402v1 (biorxiv, 2025)

Target: T1, ULK1 (NanoBRET) (Homo sapiens, UniProt O75385)
T1 sequence (O75385 1-1050): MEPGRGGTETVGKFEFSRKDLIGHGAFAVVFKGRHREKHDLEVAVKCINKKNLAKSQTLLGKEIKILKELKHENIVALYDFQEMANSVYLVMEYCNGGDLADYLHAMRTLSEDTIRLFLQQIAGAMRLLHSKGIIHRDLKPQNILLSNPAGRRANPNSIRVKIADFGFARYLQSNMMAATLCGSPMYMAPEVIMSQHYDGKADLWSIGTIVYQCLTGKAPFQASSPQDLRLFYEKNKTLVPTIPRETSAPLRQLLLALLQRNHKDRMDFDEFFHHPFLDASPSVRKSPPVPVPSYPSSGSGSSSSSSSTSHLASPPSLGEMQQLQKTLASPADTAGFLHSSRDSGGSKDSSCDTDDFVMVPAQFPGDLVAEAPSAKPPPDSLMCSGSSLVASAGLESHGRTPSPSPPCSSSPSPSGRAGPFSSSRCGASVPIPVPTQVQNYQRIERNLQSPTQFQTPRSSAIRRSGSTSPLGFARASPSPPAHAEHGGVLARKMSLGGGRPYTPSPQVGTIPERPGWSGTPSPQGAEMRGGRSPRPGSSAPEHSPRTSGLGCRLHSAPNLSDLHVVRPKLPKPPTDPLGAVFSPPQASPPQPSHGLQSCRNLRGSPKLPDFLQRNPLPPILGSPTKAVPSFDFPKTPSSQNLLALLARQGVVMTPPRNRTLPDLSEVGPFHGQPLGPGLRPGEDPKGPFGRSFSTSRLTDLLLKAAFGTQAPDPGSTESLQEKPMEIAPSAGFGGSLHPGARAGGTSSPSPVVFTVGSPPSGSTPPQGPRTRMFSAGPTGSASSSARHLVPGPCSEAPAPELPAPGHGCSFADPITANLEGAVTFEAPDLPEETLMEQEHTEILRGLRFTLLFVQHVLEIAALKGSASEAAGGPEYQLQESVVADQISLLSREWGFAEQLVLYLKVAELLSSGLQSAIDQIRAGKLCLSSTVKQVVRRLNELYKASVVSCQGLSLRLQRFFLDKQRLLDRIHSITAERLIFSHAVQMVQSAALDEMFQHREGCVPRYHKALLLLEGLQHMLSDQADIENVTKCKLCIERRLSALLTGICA
Assay: NanoBRET cellular target engagement
Format: cell-based

CNC(=O)c1ccccc1Oc1nc(Nc2cc(OC)c(OC)c(OC)c2)ncc1Br [SBI-0206965, reference compound]
IC50: 785 ± 26 nM
